Test results as given in ChEMBL document CHEMBL5321287, “Discovery, Synthesis, and Evaluation of Novel Dual Inhibitors of a Vascular Endothelial Growth Factor Receptor and Poly(ADP-Ribose) Polymerase for BRCA Wild-Type Breast Cancer Therapy” (J Med Chem, 2023).

Chains of the proteins cited; added tags and fusions are not shown. Lines headed by an entry give the natural chain unless they say otherwise; changes in a name come on top.
UniProt P35916, whole entry: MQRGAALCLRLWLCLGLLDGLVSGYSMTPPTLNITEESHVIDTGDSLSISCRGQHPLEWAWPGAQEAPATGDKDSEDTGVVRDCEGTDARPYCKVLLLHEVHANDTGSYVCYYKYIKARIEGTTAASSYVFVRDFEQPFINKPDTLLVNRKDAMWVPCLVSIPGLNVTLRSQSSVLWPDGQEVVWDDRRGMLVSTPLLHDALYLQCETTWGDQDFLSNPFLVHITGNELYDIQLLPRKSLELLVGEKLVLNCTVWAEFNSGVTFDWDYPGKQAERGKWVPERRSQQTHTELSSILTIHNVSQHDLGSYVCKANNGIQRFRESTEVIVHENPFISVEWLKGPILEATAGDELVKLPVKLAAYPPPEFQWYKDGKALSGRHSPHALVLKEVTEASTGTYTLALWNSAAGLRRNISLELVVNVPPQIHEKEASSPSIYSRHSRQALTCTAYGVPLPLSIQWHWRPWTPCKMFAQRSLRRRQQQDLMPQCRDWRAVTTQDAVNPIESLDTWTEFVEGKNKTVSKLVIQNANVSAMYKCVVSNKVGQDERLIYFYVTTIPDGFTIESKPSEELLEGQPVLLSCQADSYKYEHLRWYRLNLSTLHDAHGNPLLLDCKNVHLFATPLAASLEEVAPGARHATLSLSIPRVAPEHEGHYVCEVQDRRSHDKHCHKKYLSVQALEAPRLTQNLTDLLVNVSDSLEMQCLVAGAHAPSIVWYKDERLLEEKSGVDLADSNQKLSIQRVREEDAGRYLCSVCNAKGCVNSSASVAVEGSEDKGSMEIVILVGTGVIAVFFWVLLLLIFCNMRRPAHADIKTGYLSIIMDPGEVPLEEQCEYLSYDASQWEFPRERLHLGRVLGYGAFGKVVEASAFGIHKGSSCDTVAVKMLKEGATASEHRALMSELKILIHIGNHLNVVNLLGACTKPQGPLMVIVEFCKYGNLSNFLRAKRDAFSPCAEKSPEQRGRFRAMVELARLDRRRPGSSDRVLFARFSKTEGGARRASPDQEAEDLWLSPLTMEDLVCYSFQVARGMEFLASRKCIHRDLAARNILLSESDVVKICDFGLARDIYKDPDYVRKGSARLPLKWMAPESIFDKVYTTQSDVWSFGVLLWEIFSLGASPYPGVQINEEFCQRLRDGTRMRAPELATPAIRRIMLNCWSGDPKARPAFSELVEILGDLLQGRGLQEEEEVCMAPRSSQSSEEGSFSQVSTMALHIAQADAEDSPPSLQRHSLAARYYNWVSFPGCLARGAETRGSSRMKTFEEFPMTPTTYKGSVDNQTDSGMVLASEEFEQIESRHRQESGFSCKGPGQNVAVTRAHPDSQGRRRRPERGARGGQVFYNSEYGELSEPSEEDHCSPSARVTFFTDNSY
UniProt P17948, whole entry: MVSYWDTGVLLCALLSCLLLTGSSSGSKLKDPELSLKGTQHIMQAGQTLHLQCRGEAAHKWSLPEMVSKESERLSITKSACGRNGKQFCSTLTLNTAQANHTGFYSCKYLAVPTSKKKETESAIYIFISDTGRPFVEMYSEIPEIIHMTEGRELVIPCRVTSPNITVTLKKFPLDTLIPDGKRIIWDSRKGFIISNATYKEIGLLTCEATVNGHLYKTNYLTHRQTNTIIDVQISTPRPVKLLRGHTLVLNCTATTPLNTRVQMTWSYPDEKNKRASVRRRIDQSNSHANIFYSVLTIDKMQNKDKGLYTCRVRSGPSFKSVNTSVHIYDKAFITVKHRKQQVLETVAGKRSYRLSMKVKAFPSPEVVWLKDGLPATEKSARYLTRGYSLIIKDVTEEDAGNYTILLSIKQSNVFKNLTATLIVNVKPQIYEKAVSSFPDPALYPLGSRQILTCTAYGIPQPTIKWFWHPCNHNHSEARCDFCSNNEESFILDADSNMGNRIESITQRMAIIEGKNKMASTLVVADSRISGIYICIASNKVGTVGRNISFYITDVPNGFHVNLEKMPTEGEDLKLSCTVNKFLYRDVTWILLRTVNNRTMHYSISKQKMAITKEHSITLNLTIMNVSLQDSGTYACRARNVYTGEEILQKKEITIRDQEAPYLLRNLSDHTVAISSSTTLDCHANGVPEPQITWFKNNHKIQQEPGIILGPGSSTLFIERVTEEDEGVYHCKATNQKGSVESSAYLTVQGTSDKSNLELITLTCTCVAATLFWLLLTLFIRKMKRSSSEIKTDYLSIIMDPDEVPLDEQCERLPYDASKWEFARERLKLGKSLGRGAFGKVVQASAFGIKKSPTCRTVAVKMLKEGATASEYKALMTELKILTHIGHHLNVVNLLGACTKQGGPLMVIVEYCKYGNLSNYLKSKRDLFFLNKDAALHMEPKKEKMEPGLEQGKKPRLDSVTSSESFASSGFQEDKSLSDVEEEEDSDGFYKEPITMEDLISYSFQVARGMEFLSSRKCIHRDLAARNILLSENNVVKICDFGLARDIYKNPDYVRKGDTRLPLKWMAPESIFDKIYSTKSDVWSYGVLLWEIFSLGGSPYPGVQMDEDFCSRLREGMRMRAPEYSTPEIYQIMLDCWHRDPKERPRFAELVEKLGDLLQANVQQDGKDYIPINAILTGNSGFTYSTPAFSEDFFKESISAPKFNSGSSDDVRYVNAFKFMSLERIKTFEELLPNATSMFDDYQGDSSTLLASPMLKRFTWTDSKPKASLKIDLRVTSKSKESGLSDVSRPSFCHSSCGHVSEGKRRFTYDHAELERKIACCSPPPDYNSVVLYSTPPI
UniProt Q16584: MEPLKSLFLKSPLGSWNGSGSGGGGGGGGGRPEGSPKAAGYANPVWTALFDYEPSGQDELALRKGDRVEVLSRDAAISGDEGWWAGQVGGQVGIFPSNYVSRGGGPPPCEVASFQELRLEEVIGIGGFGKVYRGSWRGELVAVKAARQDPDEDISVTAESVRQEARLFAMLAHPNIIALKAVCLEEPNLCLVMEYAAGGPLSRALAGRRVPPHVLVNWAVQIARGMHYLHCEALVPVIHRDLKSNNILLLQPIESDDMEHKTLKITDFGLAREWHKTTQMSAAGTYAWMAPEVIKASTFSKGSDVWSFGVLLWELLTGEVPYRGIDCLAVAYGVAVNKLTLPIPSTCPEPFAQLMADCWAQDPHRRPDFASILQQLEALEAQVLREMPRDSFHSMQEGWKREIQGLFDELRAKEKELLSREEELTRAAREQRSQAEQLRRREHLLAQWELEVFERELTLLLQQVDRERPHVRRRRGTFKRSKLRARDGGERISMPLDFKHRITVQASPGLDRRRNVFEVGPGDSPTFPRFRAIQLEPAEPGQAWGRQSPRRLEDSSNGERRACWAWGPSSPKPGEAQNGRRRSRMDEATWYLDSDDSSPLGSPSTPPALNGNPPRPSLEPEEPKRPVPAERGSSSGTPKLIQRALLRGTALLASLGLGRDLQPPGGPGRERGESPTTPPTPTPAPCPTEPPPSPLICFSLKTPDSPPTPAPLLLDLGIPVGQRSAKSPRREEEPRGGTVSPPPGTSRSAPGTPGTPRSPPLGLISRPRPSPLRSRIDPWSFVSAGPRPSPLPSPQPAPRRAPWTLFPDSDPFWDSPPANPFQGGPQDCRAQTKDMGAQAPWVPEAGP
UniProt O75716, whole entry: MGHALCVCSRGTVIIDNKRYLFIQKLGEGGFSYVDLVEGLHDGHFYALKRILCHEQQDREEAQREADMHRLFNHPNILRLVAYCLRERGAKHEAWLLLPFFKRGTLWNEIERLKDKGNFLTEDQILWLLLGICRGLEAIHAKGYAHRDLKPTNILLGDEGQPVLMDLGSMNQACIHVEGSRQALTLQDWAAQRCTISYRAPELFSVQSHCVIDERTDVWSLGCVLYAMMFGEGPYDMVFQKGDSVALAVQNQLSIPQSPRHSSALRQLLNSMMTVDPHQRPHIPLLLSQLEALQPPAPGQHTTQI

Experiments:
[1] = molecular target: T1, Vascular endothelial growth factor receptor 3 (Homo sapiens, UniProt P35916); test: Inhibition of VEGFR3 phosphorylation at tyr1230 residue in VEGF165-treated HUVEC cells at 8 uM incubated for 2 days by Western blot analysis; type: cell-based; conditions: time 2.0 day
[2] = molecular target: T2, Vascular endothelial growth factor receptor 1 (Homo sapiens, UniProt P17948); test: Inhibition of VEGFR1 phosphorylation at tyr1333 residue in human MDA-MB-231 cells at 8 uM incubated for 2 days by Western blot analysis; type: cell-based; conditions: time 2.0 day
[3] = molecular target: T2, Vascular endothelial growth factor receptor 1; test: Inhibition of VEGFR1 (unknown origin) at 1 uM by Z'-Lyte kinase assay relative to control
[4] = molecular target: T1, Vascular endothelial growth factor receptor 3; test: Inhibition of VEGFR3 (unknown origin) at 1 uM by Z'-Lyte kinase assay relative to control
[5] = molecular target: T2, Vascular endothelial growth factor receptor 1; test: Inhibition of VEGFR1 phosphorylation at tyr1333 residue in VEGF165-treated HUVEC cells at 8 uM incubated for 2 days by Western blot analysis; type: cell-based; conditions: time 2.0 day
[6] = molecular target: Mitogen-activated protein kinase kinase kinase 11 (Homo sapiens, UniProt Q16584); test: Inhibition of MLK3 (unknown origin) at 1 uM by Z'-Lyte kinase assay relative to control
[7] = molecular target: Serine/threonine-protein kinase 16 (Homo sapiens, UniProt O75716); test: Inhibition of MPSK1 (unknown origin) at 1 uM by Z'-Lyte kinase assay relative to control
[8] = molecular target: T2, Vascular endothelial growth factor receptor 1; test: Inhibition of VEGFR1 phosphorylation at tyr1333 residue in human MCF7 cells at 8 uM incubated for 2 days by Western blot analysis; type: cell-based; conditions: time 2.0 day
[9] = molecular target: T1, Vascular endothelial growth factor receptor 3; test: Inhibition of VEGFR3 phosphorylation at tyr1230 residue in human MDA-MB-231 cells at 8 uM incubated for 2 days by Western blot analysis; type: cell-based; conditions: time 2.0 day
[10] = molecular target: T1, Vascular endothelial growth factor receptor 3; test: Inhibition of VEGFR3 phosphorylation at tyr1230 residue in human MCF7 cells at 8 uM incubated for 2 days by Western blot analysis; type: cell-based; conditions: time 2.0 day
[11] = molecular target: T3, Serine/threonine-protein kinase TAO2 (Homo sapiens) (UniProt Q9UL54); test: Inhibition of TAO2 (unknown origin) at 1 uM by Z'-Lyte kinase assay relative to control
T3 sequence (whole entry): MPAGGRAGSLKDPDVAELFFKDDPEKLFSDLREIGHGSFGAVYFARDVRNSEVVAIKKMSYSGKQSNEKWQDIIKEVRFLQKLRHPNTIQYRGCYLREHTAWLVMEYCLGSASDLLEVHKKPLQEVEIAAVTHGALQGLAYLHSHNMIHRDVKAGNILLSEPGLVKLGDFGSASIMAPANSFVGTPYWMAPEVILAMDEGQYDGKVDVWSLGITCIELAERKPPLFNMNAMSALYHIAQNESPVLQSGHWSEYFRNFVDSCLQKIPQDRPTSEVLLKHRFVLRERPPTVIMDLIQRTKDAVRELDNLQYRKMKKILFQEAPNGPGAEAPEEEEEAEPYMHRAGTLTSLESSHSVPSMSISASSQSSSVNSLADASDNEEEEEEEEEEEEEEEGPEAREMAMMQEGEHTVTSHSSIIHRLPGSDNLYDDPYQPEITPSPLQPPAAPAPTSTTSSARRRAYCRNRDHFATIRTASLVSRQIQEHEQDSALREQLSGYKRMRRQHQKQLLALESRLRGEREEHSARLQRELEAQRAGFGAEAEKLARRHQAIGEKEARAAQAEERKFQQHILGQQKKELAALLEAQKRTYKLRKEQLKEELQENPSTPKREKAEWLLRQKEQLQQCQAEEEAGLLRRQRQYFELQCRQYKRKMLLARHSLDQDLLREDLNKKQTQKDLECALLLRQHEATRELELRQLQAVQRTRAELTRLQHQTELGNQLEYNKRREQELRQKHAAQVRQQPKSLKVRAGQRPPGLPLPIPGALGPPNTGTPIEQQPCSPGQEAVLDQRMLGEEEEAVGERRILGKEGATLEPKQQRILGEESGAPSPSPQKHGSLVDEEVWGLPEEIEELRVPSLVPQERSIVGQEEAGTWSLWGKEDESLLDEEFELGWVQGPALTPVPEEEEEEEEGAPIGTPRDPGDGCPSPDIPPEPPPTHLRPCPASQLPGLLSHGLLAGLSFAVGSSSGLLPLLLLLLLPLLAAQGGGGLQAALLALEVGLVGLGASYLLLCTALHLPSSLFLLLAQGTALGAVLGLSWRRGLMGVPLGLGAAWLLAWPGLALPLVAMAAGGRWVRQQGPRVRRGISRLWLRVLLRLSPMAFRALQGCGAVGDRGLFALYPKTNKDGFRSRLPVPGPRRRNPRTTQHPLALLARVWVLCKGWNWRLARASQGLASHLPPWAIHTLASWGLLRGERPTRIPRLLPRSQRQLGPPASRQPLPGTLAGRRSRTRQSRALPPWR

inhibition [1]: Active
inhibition [2]: Active
inhibition [3]: 99%
inhibition [4]: 90%
inhibition [5]: Active
inhibition [6]: 87%
inhibition [7]: 100%
inhibition [8]: Active
inhibition [9]: Active
inhibition [10]: Active
inhibition [11]: 85%
Compound: Cc1ccc(Nc2nccc(N(C)c3ccc4c(C)n(C)nc4c3)n2)cc1-c1nc2c(C(N)=O)cccc2[nH]1

The source made the active and inactive calls. The rule behind the calls is not given here.
